Assay results taken from ChEMBL document CHEMBL3808321, “LAT-1 activity of meta-substituted phenylalanine and tyrosine analogs” (Bioorg Med Chem Lett, 2016).

Sequences of proteins named here, by UniProt entry; tags and fusion partners are left off. A change or cut given only in a name is not applied to a line headed by its entry.
UniProt Q01650: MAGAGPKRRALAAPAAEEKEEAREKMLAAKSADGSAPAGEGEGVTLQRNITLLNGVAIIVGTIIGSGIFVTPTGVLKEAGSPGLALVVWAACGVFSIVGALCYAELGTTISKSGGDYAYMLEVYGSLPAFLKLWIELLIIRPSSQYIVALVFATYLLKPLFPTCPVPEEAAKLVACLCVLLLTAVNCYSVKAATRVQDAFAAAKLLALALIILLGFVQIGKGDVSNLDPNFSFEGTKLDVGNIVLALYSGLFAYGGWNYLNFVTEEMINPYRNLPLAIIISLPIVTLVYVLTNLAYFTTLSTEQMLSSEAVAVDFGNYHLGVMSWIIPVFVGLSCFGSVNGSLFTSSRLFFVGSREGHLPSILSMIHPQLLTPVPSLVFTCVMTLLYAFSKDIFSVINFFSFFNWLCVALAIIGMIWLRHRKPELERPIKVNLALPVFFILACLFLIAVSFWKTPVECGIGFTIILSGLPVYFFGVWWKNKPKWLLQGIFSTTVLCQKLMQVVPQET

What was measured:
[1] = molecular target: T1, Large neutral amino acids transporter small subunit 1 (Homo sapiens, UniProt Q01650); assay: Substrate activity at human LAT1 expressed in HEK cells assessed as efflux rate of [3H]-gabapentin at 200 uM after 5 to 180 secs by scintillation counting based trans-stimulation assay; format: cell-based; conditions: HEK293
Method in brief: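 HEK-hLAT1 cells were preloaded with [3H]-gabapentin, then incubated with test agent at 200 μM. Efflux rate (fmol/min) was compared with efflux in the agent's absence and with L-leucine and L-arginine as positive and negative controls and L-phenylalanine and L-tyrosine as parent amino acids. Mean of at least three experiments.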

[2] = molecular target: T1, Large neutral amino acids transporter small subunit 1; assay: Inhibition of human LAT1 expressed in HEK cells assessed as reduction in uptake of [3H]-gabapentin at 200 uM after 3 mins by scintillation counting based cis-inhibition assay; format: cell-based; conditions: HEK293
Method in brief: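 HEK cells stably transfected with human LAT-1 cDNA. Test agent at 200 μM competed with [3H]-gabapentin for cellular uptake. Results are % inhibition relative to background signal without inhibitor, with mean of at least three experiments.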

| Compound | Activity [1] | inhibition [2] |
| --- | --- | --- |
| Cc1cccc(C[C@H](N)C(=O)O)c1 | 3.8 fmol/min | 73% |
| Cc1ccccc1C[C@H](N)C(=O)O | 2.7 fmol/min | 98% |
